Results as given in PMC3677530 (Analytical biochemistry, 2013).

Protein sequences, listed by entry. Tags and fused reporters are not part of them.
UniProt P34972, whole entry: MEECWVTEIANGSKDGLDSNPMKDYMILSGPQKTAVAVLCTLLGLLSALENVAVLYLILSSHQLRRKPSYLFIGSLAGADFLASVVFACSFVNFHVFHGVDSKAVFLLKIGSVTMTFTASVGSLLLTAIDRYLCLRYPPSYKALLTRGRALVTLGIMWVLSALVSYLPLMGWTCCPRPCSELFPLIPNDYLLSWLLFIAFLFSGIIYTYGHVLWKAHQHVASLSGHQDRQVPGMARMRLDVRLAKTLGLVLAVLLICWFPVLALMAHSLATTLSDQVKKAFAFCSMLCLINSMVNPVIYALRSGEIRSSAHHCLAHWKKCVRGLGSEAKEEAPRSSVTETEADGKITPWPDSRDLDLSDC
UniProt P21554, whole entry: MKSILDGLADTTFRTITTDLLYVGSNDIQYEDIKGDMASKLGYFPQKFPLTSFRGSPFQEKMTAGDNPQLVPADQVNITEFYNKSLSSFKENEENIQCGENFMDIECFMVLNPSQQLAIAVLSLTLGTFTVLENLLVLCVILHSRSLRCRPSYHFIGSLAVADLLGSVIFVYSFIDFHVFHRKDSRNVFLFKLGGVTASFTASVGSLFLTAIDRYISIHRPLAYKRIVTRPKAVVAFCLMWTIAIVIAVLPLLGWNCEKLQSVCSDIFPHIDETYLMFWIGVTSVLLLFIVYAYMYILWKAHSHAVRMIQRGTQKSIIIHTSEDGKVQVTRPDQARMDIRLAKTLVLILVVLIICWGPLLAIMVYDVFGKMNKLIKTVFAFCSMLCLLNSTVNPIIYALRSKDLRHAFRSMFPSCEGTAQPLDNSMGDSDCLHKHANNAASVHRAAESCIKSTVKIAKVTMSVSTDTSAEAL

Tests used:
[1] = biological target: human cannabinoid CB2 receptor (Homo sapiens, UniProt P34972); details: 2 nM [3H]-CP55,940, CHO-CB2
[2] = biological target: human cannabinoid CB1 receptor (Homo sapiens, UniProt P21554)

SMILES	inhibition of internalization (CB2) [1] [%]	inhibition of internalization (CB1) [2] [%]
CCNC1(C(N)=O)CCN(c2ncnc3c2nc(-c2ccccc2Cl)n3-c2ccc(Cl)cc2)CC1 [Otenabant]	37.6	–
Cc1c(C(=O)NN2CCOCC2)nn(-c2ccc(Cl)cc2Cl)c1-c1ccc(I)cc1 [AM281]	–	32.1
